For the experiment, the target named is Nluc-GPR1 (Homo sapiens, UniProt P46091). Kind of experiment: cell-based.

Chains of the proteins cited; added tags and fusions are not shown. Lines headed by an entry give the natural chain unless they say otherwise; changes in a name come on top.
UniProt P46091: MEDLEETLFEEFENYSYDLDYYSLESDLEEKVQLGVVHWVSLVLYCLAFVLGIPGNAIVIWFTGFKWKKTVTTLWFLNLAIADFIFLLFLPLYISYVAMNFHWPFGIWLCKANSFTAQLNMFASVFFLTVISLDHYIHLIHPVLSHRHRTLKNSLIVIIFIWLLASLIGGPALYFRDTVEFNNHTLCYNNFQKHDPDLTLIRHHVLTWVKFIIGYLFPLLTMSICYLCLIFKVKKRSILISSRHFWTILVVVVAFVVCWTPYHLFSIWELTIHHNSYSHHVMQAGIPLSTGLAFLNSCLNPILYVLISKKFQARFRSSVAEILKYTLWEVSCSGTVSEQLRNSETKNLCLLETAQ

1 compound from article PMC12169613 (2025) can be followed below.

pKi: −log10 of the molar value. Some results are limits rather than exact numbers.

For orientation: pKi means the negative decadic logarithm of the Ki, by convention in mol/L. A lower pKi goes with a large Ki. In turn, `Cc1ccc(S(=O)(=O)c2c[nH]c(SCC(=O)Nc3ccc(C(F)(F)F)cc3)nc2=O)cc1Cl` [Compound 16, 2-{[5-(3-Chloro-4-methylbenzenesulfonyl)-4-oxo-1,4-dihydropyrimidin-2-yl]sulfanyl}-N-[4-(trifluoromethyl)phenyl]acetamide] had a pKi of less than 6.00.
